Experimental data as given in patent US6686366B1, “Compounds specific to adenosine A3 receptor and uses thereof” (OSI Pharmaceuticals, Inc., priority 1998, dated 2004).
Read-outs that look alike come from different tables or passages of the source.

Chains of the proteins cited; added tags and fusions are not shown.
UniProt P30542, whole entry: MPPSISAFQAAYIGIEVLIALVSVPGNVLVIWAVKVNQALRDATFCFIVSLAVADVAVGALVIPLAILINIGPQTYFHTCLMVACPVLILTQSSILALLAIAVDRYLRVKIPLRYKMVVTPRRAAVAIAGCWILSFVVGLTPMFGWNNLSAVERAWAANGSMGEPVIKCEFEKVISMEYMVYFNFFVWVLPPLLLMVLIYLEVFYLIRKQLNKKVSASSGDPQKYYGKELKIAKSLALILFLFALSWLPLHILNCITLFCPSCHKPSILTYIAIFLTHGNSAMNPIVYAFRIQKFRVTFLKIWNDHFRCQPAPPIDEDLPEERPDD
UniProt P0DMS8, whole entry: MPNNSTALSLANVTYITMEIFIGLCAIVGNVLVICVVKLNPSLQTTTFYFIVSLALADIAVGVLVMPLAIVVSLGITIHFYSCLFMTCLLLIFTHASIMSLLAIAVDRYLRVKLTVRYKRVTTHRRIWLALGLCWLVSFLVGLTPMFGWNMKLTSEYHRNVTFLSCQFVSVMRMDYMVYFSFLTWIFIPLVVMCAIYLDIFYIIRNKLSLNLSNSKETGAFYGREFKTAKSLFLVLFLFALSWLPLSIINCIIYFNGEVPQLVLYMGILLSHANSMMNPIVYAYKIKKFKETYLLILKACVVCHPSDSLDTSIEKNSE

Tests used:
[1] = target: human adenosine A1 receptor (Homo sapiens, UniProt P30542); test: Yeast β-Galactosidase reporter gene assay, inhibition of NECA-induced activity, strain CY12660
[2] = target: human A1 receptor subtype (Homo sapiens, UniProt P30542); test: biochemical
[3] = target: T1, human A2b receptor subtype (Homo sapiens, UniProt P29275); test: Adenosine 2b receptor subtype competition radioligand binding, [3H]DPCPX, HEK293 membranes; conditions: Table 13
T1 construct: expressed in transfected cells; host or cells: HEK293, membranes
T1 sequence (P29275 1-332): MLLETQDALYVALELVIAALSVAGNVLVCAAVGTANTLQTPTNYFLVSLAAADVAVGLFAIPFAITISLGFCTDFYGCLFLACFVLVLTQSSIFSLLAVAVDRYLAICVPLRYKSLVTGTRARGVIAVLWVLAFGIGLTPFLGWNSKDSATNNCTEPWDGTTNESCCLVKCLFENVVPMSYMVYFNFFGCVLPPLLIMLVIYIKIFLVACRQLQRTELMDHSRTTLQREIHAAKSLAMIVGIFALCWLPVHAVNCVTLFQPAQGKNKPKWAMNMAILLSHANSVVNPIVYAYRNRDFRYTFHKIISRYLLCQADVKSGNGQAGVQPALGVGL

[4] = target: human A3 receptor subtype (Homo sapiens, UniProt P0DMS8); test: Adenosine 3 receptor competition radioligand binding, [125I]AB-MECA, HEK293 membranes
[5] = target: T2, human A2a receptor subtype (Homo sapiens, UniProt P29274); test: Adenosine 2a receptor subtype competition radioligand binding, [3H]CGS-21680, HEK293 membranes; conditions: Table 13
T2 construct: expressed in transfected cells; host or cells: HEK-293 (Cadus clone #5), membranes

[6] = A1 Yeast IC50 (nM), Table 11, Effect of N6-Substituent
[7] = A1 Binding Ki (nM), Table 11, Effect of N6-Substituent
[8] = A1 Binding Ki (nM), Table 12, Retro-Amide Analogues
[9] = A1 Yeast IC50 (nM), Table 12, Retro-Amide Analogues

Structure (SMILES) | Ki [3] [nM] | Ki [4] [nM] | Ki [5] [nM] | Ki ([2]; Binding Ki (nM) A1, Table 13) [nM] | other results
CC(=O)NCCNc1nc(-c2ccccc2)nc2[nH]c(C)c(C)c12 [Compound 1002] | – | – | – | – | IC50 ([1]; A1 Yeast IC50 (nM), Table 10, Effect of N6-Substituent): 82.8 nM
CC(=O)NCCNc1nc(-c2ccccc2)nc2[nH]c(C)c(C)c12 [Compound 1100] | – | – | – | – | IC50 [1, 6]: 115 nM
CNC(=O)NCCNc1nc(-c2ccccc2)nc2[nH]c(C)c(C)c12 [Compound 1102] | – | – | – | – | Ki [2, 7]: 10.3 nM; IC50 [1, 6]: 101 nM
CCNC(=O)NCCNc1nc(-c2ccccc2)nc2[nH]c(C)c(C)c12 [Compound 1103] | – | – | – | – | Ki [2, 7]: 71.1 nM; IC50 [1, 6]: 3220 nM
Cc1[nH]c2nc(-c3ccccc3)nc(NCC(C)NC(=O)OC(C)C)c2c1C (stereo not drawn) [Compound 1105] | – | – | – | – | Ki [2]: 105 nM; IC50 [1]: 472 nM
CC(=O)NCC(C)Nc1nc(-c2ccccc2)nc2[nH]c(C)c(C)c12 (stereo not drawn) [Compound 1106] | – | – | – | – | IC50 [1, 6]: 162 nM
CC(=O)NC[C@H](C)Nc1nc(-c2ccccc2)nc2[nH]c(C)c(C)c12 [Compound 1109] | – | – | – | – | Ki [2, 7]: 9 nM
CNC(=O)CCNc1nc(-c2ccccc2)nc2[nH]c(C)c(C)c12 [Compound 1201] | – | – | – | – | Ki [2, 8]: 7.4 nM; IC50 [1, 9]: 45.7 nM
Cc1[nH]c2nc(-c3ccccc3)nc(NCCC(=O)O)c2c1C [Compound 1204] | – | – | – | – | Ki [2, 8]: 1060 nM
Cc1[nH]c2nc(-c3ccccc3)nc(NCC(N)=O)c2c1C [Compound 1206] | – | – | – | – | Ki [2, 8]: 50.8 nM; IC50 [1, 9]: 4030 nM
CC(=O)NCCNc1nc(-c2ccccc2)nc2[nH]c(C)c(C)c12 [Compound 1300] | 80.3 | 513 | – | – | –
CC(=O)NCC(C)Nc1nc(-c2ccccc2)nc2[nH]c(C)c(C)c12 (stereo not drawn) [Compound 1301] | 84.6 | 430 | 50.7 | – | –
CNC(=O)NCCNc1nc(-c2ccccc2)nc2[nH]c(C)c(C)c12 [Compound 1302] | 20.1 | 4.3 | 75.6 | 20.2 | –
CNC(=O)CCNc1nc(-c2ccccc2)nc2[nH]c(C)c(C)c12 [Compound 1303] | 121 | 44.6 | 111 | 17.4 | –
CC(=O)NC1CCCN(c2nc(-c3ccccc3)nc3[nH]c(C)c(C)c23)C1 (stereo not drawn) [Compound 1309] | 109 | 0.3 | 109 | 40 | –
CNC(=O)NCCCNc1nc(-c2ccccc2)nc2[nH]c(C)c(C)c12 [Compound 1310] | 275 | – | – | 255 | –
CC(=O)NCCCCNc1nc(-c2ccccc2)nc2[nH]c(C)c(C)c12 [Compound 1311] | – | – | 981 | – | –
CNC(=O)NCCCCNc1nc(-c2ccccc2)nc2[nH]c(C)c(C)c12 [Compound 1312] | 375 | – | 2960 | 443 | –
CCNC(=O)NCCNc1nc(-c2ccccc2)nc2[nH]c(C)c(C)c12 [Compound 1314] | 30 | 0.02 | 204 | 87 | –
